ChEMBL document CHEMBL1152112, “1-Phenyl-[2H]-tetrahydropyridazin-3-one, A-53612, a selective orally active 5-lipoxygenase inhibitor” (Bioorg Med Chem Lett, 1992)

Assays:
[1] = test system: Ovis aries COX-1; test: Inhibitory activity against sheep seminal vesicle cyclooxygenase was evaluated at 300 uM
[2] = test system: Glycine max lipoxygenase; test: Inhibitory activity against soybean 15-lipoxygenase was evaluated at 100 uM

O=C1CCCN(c2ccccc2)N1 showed an inhibition [1] of 5% and an inhibition [2] of 25%.
